In PubChem BioAssay AID953 (National Center for Advancing Translational Sciences (NCATS), 2007):
This is a selection; strong and weak results do not stand in their true shares. Inconclusive results are not listed. Calls of active or inactive are those of the source. Calls follow the shape of the dose curve; as a rule, active = well fitted curve in the direction sought with a large enough effect; inconclusive = small, poorly fitted or top-dose-only effect, or effect the other way, or another doubt; inactive = no such curve, though single readings can be large or run the other way.

Assay: Confirmation Concentration-Response Assay for Agonists of the Thyroid Stimulating Hormone Receptor: Activators of Intracellular cAMP Concentrations in Parental HEK 293
Conditions: parental HEK293 CNG biosensor, cAMP membrane potential fluorescence; at 32.9 µM (top of the series)
From the text: NIH Chemical Genomics Center [NCGC] NIH Molecular Libraries Screening Centers Network [MLSCN] MLSCN Grant: 1 X01 MH080680-01 PI Name: Dr. Marvin Gershengorn NCGC Assay Overview: This cell based assay utilized a cyclic nucleotide gated ion channel (CNG) as a biosensor for cAMP induction. HEK 293 cells stably expressing the modified CNG were purchased from BD biosciences (http://www.atto.com/products/actone/features_benefits.shtml) . Stimulation of cAMP production causes the CNG to open and subsequent membrane depolarization to occur. A fluorescent membrane potential dye (BD biosciences) was utilized to detect cAMP stimulation in cells. The cells were maintained in DMEM medium (Invitrogen) containing 10 % FBS (Hyclone), 100 units/ml Penicillin, 100 ug/ml Streptomycin (Invitrogen), and 250 ug/ml Geneticin (Invitrogen) and 1 ug/ml Puromycin (Invitrogen) at 37C in 5% CO2. […]
NCGC Assay Protocol Summary: High Throughput Screening. […] 23 nl/well compound or control was then added to the assay plates, which were incubated for additional 30 min before reading a Envision fluorescence plate reader (Perkin Elmer) in bottom-read mode for fluorescence intensity (emission at 590 nm). Keywords: cAMP, CNG Ion Channel, quantitative high throughput screening, qHTS, HTS, probe identification, CNG, cAMP, cyclic nucleotide gated ion channel PubChem

SMILES: Cc1nn(-c2ccccc2)c2c1P(=O)(N1CCOCC1)N(C)C(c1ccccc1)=N2 (stereo unspecified)
- activity change, negative = inhibition: inactive: -3.63%
